These are literature values, as cited in paper PMC8569185 (Frontiers in Pharmacology, 2021).

Sequences of proteins named here, by UniProt entry; tags and fusion partners are left off.
UniProt P33534, whole entry: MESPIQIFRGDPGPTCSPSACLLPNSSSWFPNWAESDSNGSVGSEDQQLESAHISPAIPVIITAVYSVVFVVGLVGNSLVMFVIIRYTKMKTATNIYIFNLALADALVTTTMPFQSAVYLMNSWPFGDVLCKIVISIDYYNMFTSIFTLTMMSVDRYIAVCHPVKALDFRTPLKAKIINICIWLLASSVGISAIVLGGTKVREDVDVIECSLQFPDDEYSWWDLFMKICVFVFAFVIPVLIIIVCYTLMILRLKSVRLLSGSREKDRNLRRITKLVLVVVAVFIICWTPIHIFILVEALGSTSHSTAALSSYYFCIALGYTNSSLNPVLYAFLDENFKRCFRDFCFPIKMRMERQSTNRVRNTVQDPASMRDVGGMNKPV

One may read the Kd as the constant that tells how readily two partners part at equilibrium.

The target in the data set is mouse KOR (Mus musculus, UniProt P33534). The note with it: read-out: Kd of radioligand; previously determined at mouse KOR membranes; ref Muratspahić et al., 2021; cited from earlier work.

Only a part of the results on these compounds is given; other tests are left out.

For [^3H]-diprenorphine, the Kd was 0.87 nM.
